These are literature values, as cited in patent publication US8497287B2, “Aminotetralin compounds as mu opioid receptor antagonists” (priority 2007, dated 2013).

Amino acid sequences for entries named in this document (tags omitted).
UniProt P41143, whole entry: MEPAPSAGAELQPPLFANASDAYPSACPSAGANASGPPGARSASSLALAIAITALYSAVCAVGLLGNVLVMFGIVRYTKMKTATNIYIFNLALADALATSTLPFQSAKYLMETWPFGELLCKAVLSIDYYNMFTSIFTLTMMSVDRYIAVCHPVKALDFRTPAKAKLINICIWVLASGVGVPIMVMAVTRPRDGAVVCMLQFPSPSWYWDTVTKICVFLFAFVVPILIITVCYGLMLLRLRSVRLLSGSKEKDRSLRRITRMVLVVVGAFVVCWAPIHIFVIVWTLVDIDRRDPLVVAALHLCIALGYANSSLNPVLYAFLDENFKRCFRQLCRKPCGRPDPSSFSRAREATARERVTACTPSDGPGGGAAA

The target in this series is T1, Human delta opioid receptor (hDOP) membranes (Homo sapiens, UniProt P41143).
T1 construct: purchased Perkin Elmer
Particulars: saturation analyses, purchased membranes, cited from earlier work.

For orientation: Kd means the concentration at which binding is half-saturated. For the substance [^3H]-Natrindole, the “reported pKd of radioligand for hDOP membranes” value is on record as 9.85. For the same substance, the Kd (read-out: reported Kd of radioligand for hDOP membranes) was 0.14 nM.
